We go through 1 compound from ChEMBL document CHEMBL4229498 (Bioorg Med Chem, 2018).

The test is filed under the species Homo sapiens. Nature of the test: Selectivity ratio of Ki for human CB2 receptor to Ki for human CB1 receptor.

Take `O=C(OCC1CCC1)N1CCN(c2ncnc3c2nc(-c2ccccc2Cl)n3-c2ccc(Cl)cc2)CC1`: the Ratio Ki was 1500.
